From patent US20260022143A1, “Cyclic Peptide Inhibitors of IL-23” (JANSSEN PHARMACEUTICA NV, priority 2022, published 2026)

The compounds below were run against T1, IL-23R (Homo sapiens, UniProt Q5VWK5) (assay: IL23R Reporter Assay). Settings: HEK293 cells containing IL-23R, IL-12RP1 and STAT-inducible firefly luciferase reporter; 10 ng/mL IL-23 (EC90); 5 h at 37° C.; read-out: IL23R Reporter Assay.
T1 construct: host or cells: HEK293
T1 sequence (Q5VWK5 24-629): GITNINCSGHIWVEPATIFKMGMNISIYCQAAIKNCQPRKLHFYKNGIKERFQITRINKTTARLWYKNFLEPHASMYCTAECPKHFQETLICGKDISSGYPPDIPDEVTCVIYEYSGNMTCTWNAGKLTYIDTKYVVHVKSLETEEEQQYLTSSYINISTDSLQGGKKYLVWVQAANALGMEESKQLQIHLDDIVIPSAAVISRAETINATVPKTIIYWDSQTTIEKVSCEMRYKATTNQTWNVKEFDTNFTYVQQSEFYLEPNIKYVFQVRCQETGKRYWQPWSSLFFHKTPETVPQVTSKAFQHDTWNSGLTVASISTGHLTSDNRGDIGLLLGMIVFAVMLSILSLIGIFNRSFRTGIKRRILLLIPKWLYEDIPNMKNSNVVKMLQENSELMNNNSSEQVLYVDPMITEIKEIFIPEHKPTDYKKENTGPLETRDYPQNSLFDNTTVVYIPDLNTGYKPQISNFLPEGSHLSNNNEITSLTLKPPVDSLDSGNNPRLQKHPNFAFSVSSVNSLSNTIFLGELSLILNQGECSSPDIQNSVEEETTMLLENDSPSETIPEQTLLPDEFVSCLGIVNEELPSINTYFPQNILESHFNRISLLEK
Assay type: cell-based

| Compound | IC50 [nM] |
| --- | --- |
| CC(=O)N[C@@H]1C(=O)N[C@@H](CC(=O)N(C)C)C(=O)N[C@@H]([C@@H](C)O)C(=O)N[C@@H](Cc2c[nH]c3c(C)cccc23)C(=O)N[C@@H](COCCOCC[N+](C)(C)C)C(=O)N[C@H](C(=O)N[C@@H](Cc2ccc(OCCOCCOCC[N+](C)(C)C)cc2)C(=O)N[C@@H](Cc2ccc3ccccc3c2)C(=O)NC2(C(=O)N[C@@H](COCCOCC[N+](C)(C)C)C(=O)N[C@@H](CC(N)=O)C(=O)N[C@@H](Cc3cccnc3)C(=O)N(C)CC(=O)N(C)C)CCOCC2)C(C)(C)SSC1(C)C (relative stereo) [compound 256, MeCO-Pen(3)-N(N(Me)2)-T-7MeW-APEG2Ser(S*)-Pen(3)-APEG3F-2Nal-THP-APEG2Ser(S*)-N-3Pya-Sar-CON(Me)2] | 120 |
| CC(=O)N(C)CCCC[C@@H]1NC(=O)[C@H](Cc2c[nH]c3c(C)cccc23)NC(=O)[C@H]([C@@H](C)O)NC(=O)[C@H](CC(=O)N(C)C)NC(=O)[C@@H](NC(=O)CCOCCOCC[N+](C)(C)C)C(C)(C)SSC(C)(C)[C@@H](C(=O)N[C@@H](Cc2ccc(OCCN)cc2)C(=O)N[C@@H](Cc2ccc3ccccc3c2)C(=O)NC2(C(=O)N[C@@H](CCN(C)C(C)=O)C(=O)N[C@@H](CC(N)=O)C(=O)N[C@@H](Cc3cccnc3)C(=O)N(C)CC(=O)N(C)C)CCC(F)(F)C2)NC1=O (single isomer, unassigned) [compound 180, cPEG3aCO-Pen(3)-N(N(Me)2)-T-7MeW-K(NMeAc)-Pen(3)-AEF-2Nal-diFCpx-Dab(NMeAc)-N-3Pya-Sar-CON(Me)2] | 2.9 |
| CC(=O)N(C)CCCC[C@@H]1NC(=O)[C@H](Cc2c[nH]c3c(C)cccc23)NC(=O)[C@H]([C@@H](C)O)NC(=O)[C@H](CC(=O)N(C)C)NC(=O)[C@@H](NC(=O)CCOCCOCC[N+](C)(C)C)C(C)(C)SSC(C)(C)[C@@H](C(=O)N[C@@H](Cc2ccc(OCC3CCC([N+](C)(C)C)CC3)cc2)C(=O)N[C@@H](Cc2ccc3ccccc3c2)C(=O)NC2(C(=O)N[C@@H](CCCCN(C)C(C)=O)C(=O)N[C@@H](CC(N)=O)C(=O)N[C@@H](Cc3cccnc3)C(=O)N(C)CC(=O)N(C)C)CCOCC2)NC1=O (single isomer, unassigned) [compound 210, cPEG3aCO-Pen(3)-N(N(Me)2)-T-7MeW-K(NMeAc)-Pen(3)-ACHMF-2Nal-THP-K(NMeAc)-N-3Pya-Sar-CON(Me)2] | 2.2 |
| CC(=O)NCCCC[C@@H]1NC(=O)[C@H](Cc2c[nH]c3c(C)cccc23)NC(=O)[C@H]([C@@H](C)O)NC(=O)[C@H](CC(N)=O)NC(=O)[C@@H](NC(C)=O)C(C)(C)SSC(C)(C)[C@@H](C(=O)N[C@@H](Cc2ccc(OCC3CCC([N+](C)(C)C)CC3)cc2)C(=O)N[C@@H](Cc2ccc3ccccc3c2)C(=O)NC2(C(=O)N[C@@H](CCCCNC(C)=O)C(=O)N[C@@H](CC(N)=O)C(=O)N[C@@H](Cc3cccnc3)C(=O)N(C)CC(N)=O)CCOCC2)NC1=O (single isomer, unassigned) [compound 530, MeCO-Pen(3)-N-T-7MeW-K(Ac)-Pen(3)-ACHMF(S*, S*)-2Nal-THP-K(Ac)-N-3Pya-Sar-CONH2] | 2.9 |
| CC(=O)NCCCC[C@@H]1NC(=O)[C@H](Cc2c[nH]c3c(C)cccc23)NC(=O)[C@H]([C@@H](C)O)NC(=O)[C@H](CC(N)=O)NC(=O)[C@@H](NC(C)=O)C(C)(C)SSC(C)(C)[C@@H](C(=O)N[C@@H](Cc2ccc(OCCN)cc2)C(=O)N[C@@H](Cc2ccc3ccccc3c2)C(=O)NC2(C(=O)N[C@@H](CCC(=O)O)C(=O)N[C@@H](CC(N)=O)C(=O)N[C@@H](Cc3cccnc3)C(=O)N(C)CC(=O)N3CCOCC3)CCOCC2)NC1=O [SEQ ID 112, MeCO-Pen(3)—N-T-7MeW—K(Ac)-Pen(3)-AEF-2Nal-THIP-E-N-3Pya-Sar-COMor] | 5.3 |
| CC(=O)NCCCC[C@@H]1NC(=O)[C@H](Cc2c[nH]c3c(C)cccc23)NC(=O)[C@H]([C@@H](C)O)NC(=O)[C@H](CC(N)=O)NC(=O)[C@@H](NC(=O)[C@@H](CCCNC(=N)N)NC(C)=O)C(C)(C)SSC(C)(C)[C@@H](C(=O)N[C@@H](Cc2ccc(OCCN)cc2)C(=O)N[C@@H](Cc2ccc3ccccc3c2)C(=O)NC2(C(=O)N[C@@H](CCC(=O)O)C(=O)N[C@@H](CC(N)=O)C(=O)N(C)[C@H](Cc3ccc(O)cc3)C(N)=O)CCOCC2)NC1=O [compound 34] | 330 |
| CC(=O)NCCCC[C@@H]1NC(=O)[C@H](Cc2c[nH]c3c(C)cccc23)NC(=O)[C@H]([C@@H](C)O)NC(=O)[C@H](CC(N)=O)NC(=O)[C@@H](NC(=O)[C@@H](CCCNC(=N)N)NC(=O)CCOCCOCCOCCOCCOCCOCCNC(C)=O)C(C)(C)SSC(C)(C)[C@@H](C(=O)N[C@@H](Cc2ccc(OCCN)cc2)C(=O)N[C@@H](Cc2ccc3ccccc3c2)C(=O)NC2(C(=O)N[C@@H](CCC(=O)O)C(=O)N[C@@H](CC(N)=O)C(=O)N[C@@H](Cc3cccnc3)C(=O)N(C)CC(N)=O)CCOCC2)NC1=O [compound 37] | 5.3 |
| CNCCOc1ccc(C[C@H](NC(=O)[C@H]2NC(=O)[C@H](CCCCNC(C)=O)NC(=O)[C@H](Cc3c[nH]c4c(C)cccc34)NC(=O)[C@H]([C@@H](C)O)NC(=O)[C@H](CC(N)=O)NC(=O)[C@@H](NC(C)=O)C(C)(C)SSC2(C)C)C(=O)N[C@@H](Cc2ccc3ccccc3c2)C(=O)NC2(C(=O)N[C@@H](CCCCNC(C)=O)C(=O)N[C@@H](CC(N)=O)C(=O)N[C@@H](Cc3cccnc3)C(=O)N(C)CC(N)=O)CCOCC2)cc1 [compound 47] | 3.9 |
| CC(=O)NCCCC[C@@H]1NC(=O)[C@H](Cc2c[nH]c3c(C)cccc23)NC(=O)[C@H]([C@@H](C)O)NC(=O)[C@H](CC(N)=O)NC(=O)[C@@H](NC(=O)C(F)(F)F)C(C)(C)SSC(C)(C)[C@@H](C(=O)N[C@@H](Cc2ccc(OCCN)cc2)C(=O)N[C@@H](Cc2ccc3ccccc3c2)C(=O)NC2(C(=O)N[C@@H](CCCCNC(C)=O)C(=O)N[C@@H](CC(N)=O)C(=O)N[C@@H](Cc3cccnc3)C(=O)N(C)CC(N)=O)CCC(F)(F)CC2)NC1=O [compound 50] | 3.6 |

More lines, in order of falling IC50, values ahead:

| IC50 [nM] | Compound |
| --- | --- |
| 4.7 | CC(=O)NCCCC[C@@H]1NC(=O)[C@H](Cc2c[nH]c3c(C)cccc23)NC(=O)[C@H]([C@@H](C)O)NC(=O)[C@H](CC(N)=O)NC(=O)[C@@H](NC(=O)C(COCCOCC[N+](C)(C)C)NC(C)=O)C(C)(C)SSC(C)(C)[C@@H](C(=O)N[C@@H](Cc2ccc(OCCCCC[N+](C)(C)C)cc2)C(=O)N[C@@H](Cc2ccc3ccccc3c2)C(=O)NC2(C(=O)N[C@@H](CCC(=O)O)C(=O)N[C@@H](CC(N)=O)C(=O)N[C@@H](Cc3cccnc3)C(=O)N(C)CC(N)=O)CCOCC2)NC1=O (mixture of isomers) [compound 555, MeCO-APEG2Ser(RS)-Pen(3)-N-T-7MeW-K(Ac)-Pen(3)-TMAPF-2Nal-THP-E-N-3Pya-Sar-CONH2] |
| 3.3 | CC(=O)N(C)CCCC[C@@H]1NC(=O)[C@H](Cc2c[nH]c3c(C)cccc23)NC(=O)[C@H]([C@@H](C)O)NC(=O)[C@H](CC(=O)N(C)C)NC(=O)[C@@H](NC(=O)CCOCCOCC[N+](C)(C)C)C(C)(C)SSC(C)(C)[C@@H](C(=O)N[C@@H](Cc2ccc(OCC3CCC([N+](C)(C)C)CC3)cc2)C(=O)N[C@@H](Cc2ccc3ccccc3c2)C(=O)NC2(C(=O)N[C@@H](CCCCN(C)C(C)=O)C(=O)N[C@@H](CC(N)=O)C(=O)N[C@@H](Cc3cccnc3)C(=O)N(C)CC(=O)N(C)C)CCOCC2)NC1=O (single isomer, unassigned) [compound 222, cPEG3aCO-Pen(3)-N(N(Me)2)-T-7MeW-K(NMeAc)-Pen(3)-ACHMF-2Nal-THP-K(NMeAc)-N-3Pya-Sar-CON(Me)2] |
| 2.9 | CC(=O)NCCCC[C@H](NC(=O)C1(NC(=O)[C@H](Cc2ccc3ccccc3c2)NC(=O)[C@H](Cc2ccc(OCCN)cc2)NC(=O)[C@H]2NC(=O)[C@H](CCCCN(C)C(C)=O)NC(=O)[C@H](Cc3c[nH]c4c(C)cccc34)NC(=O)[C@H]([C@@H](C)O)NC(=O)[C@H](CC(N)=O)NC(=O)[C@@H](NC(C)=O)C(C)(C)SSC2(C)C)CCOCC1)C(=O)N[C@@H](CC(N)=O)C(=O)N[C@@H](Cc1cccnc1)C(=O)N(C)CC(N)=O [SEQ ID 57] |
| 2.4 | CC(=O)N(C)CCCC[C@@H]1NC(=O)[C@H](Cc2c[nH]c3c(C)cccc23)NC(=O)[C@H]([C@@H](C)O)NC(=O)[C@H](CC(=O)N(C)C)NC(=O)[C@@H](NC(=O)CCOCCOCC[N+](C)(C)C)C(C)(C)SSC(C)(C)[C@@H](C(=O)N[C@@H](Cc2ccc(OCCN(CCOCC[N+](C)(C)C)CCOCC[N+](C)(C)C)cc2)C(=O)N[C@@H](Cc2ccc3ccccc3c2)C(=O)NC2(C(=O)N[C@@H](CCCCN(C)C(C)=O)C(=O)N[C@@H](CC(N)=O)C(=O)N[C@@H](Cc3cccnc3)C(=O)N(C)CC(=O)N(C)C)CCOCC2)NC1=O (relative stereo) [compound 266, cPEG3aCO-Pen(3)-N(N(Me)2)-T-7MeW-K(NMeAc)-Pen(3)-AEF(BisPEG2a)(S*)-2Nal-THP-K(NMeAc)-N-3Pya-Sar-CON(Me)2] |
| 2.3 | CNCCOc1ccc(C[C@H](NC(=O)[C@H]2NC(=O)[C@H](CCCCN(C)C(C)=O)NC(=O)[C@H](Cc3c[nH]c4c(C)cccc34)NC(=O)[C@H]([C@@H](C)O)NC(=O)[C@H](CC(=O)NC)NC(=O)[C@@H](NC(C)=O)C(C)(C)SSC2(C)C)C(=O)N[C@@H](Cc2ccc3ccccc3c2)C(=O)NC2(C(=O)N[C@@H](CCCCN(C)C(C)=O)C(=O)N[C@@H](CC(N)=O)C(=O)N[C@@H](Cc3cccnc3)C(=O)N(C)CC(=O)NC)CCOCC2)cc1 [SEQ ID 67] |
